Apparent affinities of Ab-14 variants for a coronavirus HR2 peptide

The measurements come from Li et al. 2023 (doi:10.1038/s41467-023-39022-2) through the FLAb antibody collection.

Binding partner: SARS-CoV-2 spike HR2 peptide, sequence PDVDLGDISGINAS.

Parent scFv Ab-14: VH joined to VL by three GGGGS repeats. Changes lie in the heavy chain CDRs alone.
VH: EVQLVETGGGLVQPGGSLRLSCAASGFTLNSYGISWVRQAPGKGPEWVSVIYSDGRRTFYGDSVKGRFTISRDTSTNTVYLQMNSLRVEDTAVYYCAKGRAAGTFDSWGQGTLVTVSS
VL: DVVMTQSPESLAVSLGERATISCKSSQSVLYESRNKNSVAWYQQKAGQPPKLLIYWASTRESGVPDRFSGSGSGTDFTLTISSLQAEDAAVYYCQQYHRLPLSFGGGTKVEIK

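Phage display of a naive human antibody library on the peptide gave the parent. Designed CDR sequences, proposed from the first random library and measured here. Group labels follow the data file (Ctrl: baseline library sampled from a position-specific scoring matrix, with some repeated check sequences; Rand: our label for a block that the file lists under HC and that is probably the random mutants of the ten best first-round binders; En: ensemble of fine-tuned language models; GP: Gaussian process model; GPLM: also part of the Gaussian process libraries; HC: hill climbing; Gen: genetic algorithm; Gibbs: Gibbs sampling; a sequence that several methods proposed may carry one label only). The assay is AlphaSeq: two haploid yeast populations carry antibody and antigen on their surface. The frequency of each diploid, read from paired DNA barcodes, reflects how well the two displayed proteins bind. The ratio of observed to expected reads was calibrated, replicate by replicate, on BCL2-family standards whose Kd was known from biolayer interferometry. Mating was done six times.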

The parent's heavy chain CDRs are GFTLNSYGIS, VIYSDGRRTFYGDSVK, GRAAGTFDS; each variant's own CDRs replace them letter for letter.
Each Kd is an estimate from the mating assay, the geometric mean of the replicates in which the pair was seen; lower is stronger.
"not detected" marks a missing value. The strain was present, yet no cells mated with the target were sequenced in any replicate, which points to weak or no binding.
Values of this round are not directly comparable with the first-round values of the same sequences.
Background: pairings of all heavy chain designs with three empty control strains gave a value in 1% of cases (median 120 nM, 5th percentile 7.0 nM). Values in that range, when seen in few replicates, are hard to tell from nonspecific mating.
The parent sequence was in this pool as ten entries: three were never detected, three once, and four in most replicates, with averages from 2.2 nM to 240 nM.
The authors' rule: three or more of the six replicates give a measured affinity, fewer mean a poor binder.

CDR-H1 | CDR-H2 | CDR-H3 | group | apparent Kd | detected
GFDLNEYGIS | VIYADGVRTFYTDSVK | GTFAGTFDV | En_HC | 230 pM | 6/6
GFTLNDYGIS | VIYSDGRRTFYTDSVK | GRTAGTFDS | GPLM_Gen | 6.3 nM | 2/6
GFNLDEYGIS | VIYADGRRTFYSDNVK | GEAAGTFDL | En_HC | 210 pM | 6/6
GFDLNEYGIS | VIYADGMRTYYADSVK | GNNAGTFDT | En_Gen | 1.1 nM | 4/6
GFDLNEYGIS | VIYADGRRTAYADSVK | GKVAGTFNV | En_HC | 78 pM | 6/6
GFDLNEYGIS | VIYADGKRTAYIDSVK | GTNAGTFDV | En_Gen | 100 pM | 6/6
GFNLNEYGIS | VIYADGRRTFYTDDVK | GEAAGTFDL | En_HC | 110 pM | 3/6
GFTLNSYGIS | YIYSDGRRTFYGDSVK | GRAAGTDDS | Ctrl | not detected | 0/6
GFDLDEYGIS | VIYADGVRTAYADDVK | GENAGTFDI | En_Gen | 560 pM | 6/6
GFDLNEYGIS | VIYADGVRTAYADSVK | GETAGTFDL | En_Gen | 120 pM | 6/6
GFDLEEYGIS | VIYADGKREAYTANVK | GGKSGDFFM | En_Gibbs | not detected | 0/6
GFDLEDYGIS | VIYADGRRTAYADSVK | GNVAGTFDI | En_Gen | 760 pM | 6/6
GFDLNEYGIS | VIYADGSRTAYADSVK | GEVAGTFDI | En_Gen | 140 pM | 6/6
GFDLNSYGIS | VIYSDGKRTFYGDSVK | GRTAGTFDS | GPLM_Gibbs | 670 pM | 6/6
GFTLDSYGIS | VIYSDGRRTFYADSVK | GREAGTFDT | GP_Gibbs | 990 pM | 6/6
GFNLNSYGIS | VIYSDGRRTFYGDQVK | GRTAGTFDQ | GP_Gibbs | 150 nM | 6/6
GFDLNSYGIS | VIYSDGRRTFYGDSVK | GKAAGTFDT | GPLM_Gibbs | 2.6 nM | 6/6
GFNLEEYGIS | VIYADGVRSFYIEDVK | GQWNADFIV | En_Gibbs | not detected | 0/6
GFKLNSYGIS | VIYSDGRRTFYMDSVK | GQTAGTFDS | GP_HC | 3.8 nM | 1/6
GPDLNSYPIS | VIYSDGRRTFYGDSVK | GRTAGWFNS | Rand | not detected | 0/6
GFDLNSYGIS | VIYSDGRRTFYVDDVK | GRLAGTFDS | GP_Gibbs | 3.4 nM | 6/6
GFNLDEYGIS | VIYADGIRTVYADSVK | GGLKMHSLT | En_Gibbs | not detected | 0/6
GFTEVDYGIS | VINEDGRRTQYIDSIK | GRAAGTFDS | Rand | not detected | 0/6
GFTLRSYGIS | VIYVDGRRTFPGDSVK | GPAAGTALS | Rand | not detected | 0/6
GFRLNEYGIS | VIYSDGRRTFYGDSVK | RKQAGTFDT | Ctrl | not detected | 0/6
GFTLNEYGIS | VIYSDGRRTFYGDSVK | GRAAGTFMD | GP_HC | 18 nM | 1/6
GFQLNSYGIS | VIYSDGRRTFYGDNVK | RRAAGTFDS | Ctrl | not detected | 0/6
GFDLNEYGIS | VIYADGVRTAYTDSVK | GEVAGTFDI | En_Gen | 2.6 nM | 6/6
GFDLDEYGIS | VIYADGMRTFYADSVK | GNVAGTFDI | En_Gen | 44 pM | 6/6
PFTLNDQGIS | VIYSDGRRTSYGDSVK | GRAAGTFDS | Ctrl | 13 nM | 1/6
GFDLNEYGIS | VIYADGRRTFYTDSVK | GEIAGTFDS | En_HC | 380 pM | 6/6
GFDLNSYGIS | VIYSDGRRTGYGDSVK | GRAAGTFDS | Ctrl | 2.6 nM | 6/6
GFDLQEYGIS | VIFADGLRSAYSDKVK | GQINGYFSV | En_Gibbs | not detected | 0/6
GFSLNMYGIS | VIYSDGRRTYYGDSVK | GRAAGTFDS | Ctrl | 7.9 nM | 6/6
GFDLDEYGIS | VIYADGKRTFYADSVK | GNVAGTFDV | En_Gen | 240 pM | 6/6
GFSLNEYGIS | VIYSDGRRTFYDDSVK | GRNAGTFDS | GP_HC | 1.7 nM | 6/6
GFTLNSYGIS | VIYSDGRRTFYIDSVK | GQLAGTFDR | GPLM_HC | 54 nM | 4/6
GFDLNEYGIS | VIYADGRRTQYIDSVK | GEVAGTFDT | En_HC | 6.6 nM | 6/6
GFDLNEYGIS | VIYADGQRTAYADDVK | GSNAGTFDV | En_Gen | 350 pM | 6/6
GFDLNEYGIS | VIYADGMRTAYADSVK | GGNAGTFDQ | En_Gen | not detected | 0/6
GFCLNSYGIS | VIYSDGRRTFYGDSVK | GRAAGTFDS | Ctrl | not detected | 0/6
GFDLNEYGIS | VIYADGLRTAYADSVK | GNVAGTFDL | En_Gen | 160 pM | 6/6
GFTFNEYGVS | VIYSDGRRTFYGDSVK | GRGAGTFDS | Ctrl | not detected | 0/6
GFTLNSYGIS | VIYSDGRRTFYNDSVK | GQAKGTFDG | Ctrl | 20 nM | 5/6
GFALNEYGIS | VIYSDGRRTFYSDSVK | GKAAGTFDS | GP_Gen | 3.3 nM | 6/6
GFELNEYGIS | VIYSDGRRTFYGDSVK | GTAAQTFDS | Ctrl | not detected | 0/6
GFDLDEYGIS | VIYADGKRTAYSDSVK | GNNAGTFDQ | En_Gen | 180 pM | 6/6
GADIQEYGIS | VIYADGIRTAYANNVK | GKYGSQFDE | En_Gibbs | 9.9 nM | 5/6
GFTLNSYGIS | VIYSDGRRTQYGDKVK | GRAAGTFPS | Ctrl | 1.4 µM | 2/6
GFKLEEYGIS | VIYADGQRVAYQDKVK | GQHAGMFDV | En_Gibbs | 8.7 nM | 6/6
GFDLNEYGIS | VIYADGVRTFYSDSVK | GEVAGTFDV | En_HC | 490 pM | 6/6
GFTLNEYGIS | VIYSDGRRTFYADSVK | GRAAGTFDW | Ctrl | 200 nM | 5/6
GFTLNSYGIS | VIYSDGRRTFYGDSVK | GRATGAFDS | Ctrl | not detected | 0/6
GFDLNEYGIS | VIYADGVRQAYADDVK | GNVAGTFDV | En_Gen | 1.7 nM | 6/6
GFSLNSYGIS | VIYSDGRRTFYGDSVK | GEAAGTFDN | GPLM_Gen | 2.0 nM | 6/6
GFSLNEYGIS | VIYSDGRRTFYSDSVK | GRQAGTFDS | GP_Gen | 360 pM | 6/6
GSDLEEYGIS | VIYADGMRSKYAQDVK | GQQGVVASM | En_Gibbs | not detected | 0/6
LFTLNEYGIS | VIYSDGRRTFYGDSVK | GREAGTFDS | Ctrl | 22 nM | 2/6
GFHLNSYGIS | VIYSDGRRTFYHDSVK | GREAGTFDS | GP_Gibbs | 910 pM | 6/6
GFDLNSYGIS | VIYSDGRRTFYGDSVK | GRAAQWYNS | Rand | not detected | 0/6
GFDLNEYGIS | VIYADGVRKAYADSVK | GNQAGTFDL | En_Gen | 570 pM | 6/6
GFTLNEYGIS | VIYSDGRRTFYGDSVK | GREAGTFDA | GP_Gibbs | 1.6 nM | 6/6
GFTLESYGIS | VIYSDGKRTFYGDSVK | GRVAGTFDS | GPLM_Gen | 4.7 nM | 6/6
GFELNEYGIS | VIYSDGRRTFYIDSVK | GRTAGTFDS | GPLM_HC | 890 pM | 6/6
GFDLDEYGIS | VIYADGMRTAYTDKVK | GNVAGTFDV | En_Gen | 340 pM | 6/6
GFHLNSYGIS | VIYSDGRRTFYSDSVK | GKTAGTFDS | GPLM_Gibbs | 3.8 nM | 6/6
GFKINEYGIS | VIYADGQRVAYTNSFK | GTQAGQFFN | En_Gibbs | not detected | 0/6
GYTLNSYGIS | VIYADGRRTFYGDSVK | GRAAGTFSV | Ctrl | 2.9 nM | 6/6
GFELNSYGIS | VIYSDGRRTFYGDSVK | GKTAGTFDK | GPLM_Gibbs | 19 nM | 6/6
GFDLNEYGIS | VIYADGRRTFYADSVK | GKNAGTFDM | En_HC | 37 nM | 6/6
GFSLNEYGIS | VIYSDGRRTFYADRVK | GRTAGTFDS | GP_Gen | 930 pM | 6/6
GFDLEEYGVS | VIYADGIRFAYAQDVK | GQAAGAFDL | En_Gibbs | 7.8 nM | 6/6
GFTLNSYGIS | VIYSDGRRTFYADSVK | GRAAGTFPS | Ctrl | not detected | 0/6
GFTLNDYGIS | VIYSDGRRTFYGQSVV | GRAAGTFDT | Ctrl | 34 nM | 1/6
MFDLNSYGIS | VIYSDGRRTFYGDSVK | GRNAGTFDS | GP_Gen | 15 nM | 6/6
GFSLNSYGIS | VIYSDGRRTAYQDSVK | GNAAGTFDS | GP_Gibbs | 500 pM | 5/6
GFSLNQYGIS | VIYSDGRRTFYDDSVK | GRAAGTFDS | GPLM_HC | 44 nM | 5/6

Picked from the list: the 7 lowest averages where every replicate gave a value.

CDR-H1,CDR-H2,CDR-H3,group,apparent Kd,detected
GFDLDEYGIS,VIYADGMRTFYADSVK,GNVAGTFDI,En_Gen,44 pM,6/6
GFDLNEYGIS,VIYADGRRTAYADSVK,GKVAGTFNV,En_HC,78 pM,6/6
GFDLNEYGIS,VIYADGKRTAYIDSVK,GTNAGTFDV,En_Gen,100 pM,6/6
GFDLNEYGIS,VIYADGVRTAYADSVK,GETAGTFDL,En_Gen,120 pM,6/6
GFDLNEYGIS,VIYADGSRTAYADSVK,GEVAGTFDI,En_Gen,140 pM,6/6
GFDLNEYGIS,VIYADGLRTAYADSVK,GNVAGTFDL,En_Gen,160 pM,6/6
GFDLDEYGIS,VIYADGKRTAYSDSVK,GNNAGTFDQ,En_Gen,180 pM,6/6